# Measurements reported in patent US10434198B2, “Radiopharmaceutical solutions with advantageous properties” (Sciencons AS, priority 2015, dated 2019).
# Conditions: mouse, in vivo
substance,measurement,value
"TCMC-labeled trastuzumab: trastuzumab (Herceptin) monoclonal antibody conjugated with p-SCN-Bn-TCMC, scavenging ^212Pb in ^224Ra solution",^224Ra biodistribution,very similar to that found in the biodistribution of chelator free radium solution
